# Measurements published in doi:10.1101/2024.04.25.591105v1 (biorxiv, 2024).
# Chains of the proteins cited; added tags and fusions are not shown. Lines headed by an entry give the natural chain unless they say otherwise; changes in a name come on top.
# UniProt P03372: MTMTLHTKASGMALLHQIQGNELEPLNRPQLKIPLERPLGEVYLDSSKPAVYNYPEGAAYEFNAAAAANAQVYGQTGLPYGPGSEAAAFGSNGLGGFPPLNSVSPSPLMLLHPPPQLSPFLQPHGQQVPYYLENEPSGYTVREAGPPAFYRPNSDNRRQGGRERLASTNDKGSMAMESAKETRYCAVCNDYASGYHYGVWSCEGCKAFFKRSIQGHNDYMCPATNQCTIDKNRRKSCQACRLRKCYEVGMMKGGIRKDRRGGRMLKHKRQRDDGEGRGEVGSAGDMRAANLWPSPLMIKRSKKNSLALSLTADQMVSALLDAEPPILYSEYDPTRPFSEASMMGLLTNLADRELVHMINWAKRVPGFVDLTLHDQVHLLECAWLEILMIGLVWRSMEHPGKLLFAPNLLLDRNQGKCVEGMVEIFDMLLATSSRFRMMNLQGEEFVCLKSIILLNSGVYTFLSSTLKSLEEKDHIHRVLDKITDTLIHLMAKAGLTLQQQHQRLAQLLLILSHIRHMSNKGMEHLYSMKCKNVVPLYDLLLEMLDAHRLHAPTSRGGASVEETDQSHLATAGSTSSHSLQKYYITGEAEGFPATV
# UniProt P31947: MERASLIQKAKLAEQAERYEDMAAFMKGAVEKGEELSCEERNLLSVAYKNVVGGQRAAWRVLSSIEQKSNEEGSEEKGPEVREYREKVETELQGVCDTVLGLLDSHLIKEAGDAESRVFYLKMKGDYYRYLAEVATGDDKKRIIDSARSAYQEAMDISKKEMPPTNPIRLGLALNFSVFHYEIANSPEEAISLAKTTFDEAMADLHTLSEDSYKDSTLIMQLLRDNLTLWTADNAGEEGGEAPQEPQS
# Target: ERα/14-3-3σ complex (14-3-3σ FL + FAM-labeled C-terminal phospho-ERα peptide) (Homo sapiens, UniProt P03372+P31947)
# Assay: fluorescence anisotropy, compound titration
# Format: binding
smiles,measurement,value
C=CC(C)(C)OC[C@H]1O[C@H](O[C@@H]2C3=C([C@H](C)CNC(C)=O)C[C@H](O)[C@]3(C)/C=C3\[C@@H](COC)CC[C@H]3[C@@H](C)[C@H]2O)[C@H](O)[C@@H](O)[C@@H]1O [FC-NAc],EC50,15 nM
